Results on one molecule are retold here after patent publication US20240398756A1, “DRUG FOR REDUCING BLOOD GLUCOSE AND/OR TREATING DIABETIC COMPLICATIONS” (SICHUAN UNIVERSITY, priority 2022, published 2024).

This assay has as its system C57BL/KsJ db/db mice. Description: Serum insulin content and insulin resistance index in db/db diabetic mice. It is filed as in vivo. The following applies: gavage, end of 1 month treatment, nanoparticles 100 mg/kg every 3 days, LA monomer 100 mg/kg and metformin 120 mg/kg daily. Here is the method: 8-week male C57BL/KsJ db/db mice, SPF grade, provided by Jiangsu GemPharmatech Co. Ltd., Changzhou Branch, certificate number: 202012449, with an initial weight of 44±2 g, underwent adaptive feeding for one week. A total of 24 C57BL/KsJ db/db mice were randomly divided into 4 groups according to body weight and blood glucose, with 6 mice in each group. They were db/db model group, db/db+lipoic acid nanoparticle group (100 mg/kg), db/db+lipoic acid monomer group (100 mg/kg) and db/db+metformin group (120 mg/kg). There were 6 littermate w/w male mice of the same week age as the solvent control group. […] After administration of a single dose, the blood glucose changes of mice were continuously monitored for 3 days. During the 1-month treatment cycle, the blood glucose changes of the mice were detected every 3 days. […] The mice were killed by enucleation and bloodletting, serum samples were collected by centrifugation at room temperature, the serum insulin content was detected by mouse insulin ELISA detection kit, and the insulin resistance index was calculated, and the percentage of the drug to reduce the serum insulin content and insulin resistance index was calculated based on the difference between the model and the normal control group. The results of the quantitative experiment were expressed as mean±variance (x±s). […]

Take `O=C(O)CCCCC1CCSS1` (stereo not shown) [LA monomer, lipoic acid]: the “decrease of insulin resistance index” value is on record as “no significant difference”.
